Test results as given in ChEMBL document CHEMBL3751845, “Synthesis, molecular docking and biological evaluation of N,N-disubstituted 2-aminothiazolines as a new class of butyrylcholinesterase and carboxylesterase inhibitors” (Bioorg Med Chem, 2016).

Sequences of proteins named here, by UniProt entry; tags and fusion partners are left off. Residues count along the entry.
UniProt Q29550, 19-566 limits assumed: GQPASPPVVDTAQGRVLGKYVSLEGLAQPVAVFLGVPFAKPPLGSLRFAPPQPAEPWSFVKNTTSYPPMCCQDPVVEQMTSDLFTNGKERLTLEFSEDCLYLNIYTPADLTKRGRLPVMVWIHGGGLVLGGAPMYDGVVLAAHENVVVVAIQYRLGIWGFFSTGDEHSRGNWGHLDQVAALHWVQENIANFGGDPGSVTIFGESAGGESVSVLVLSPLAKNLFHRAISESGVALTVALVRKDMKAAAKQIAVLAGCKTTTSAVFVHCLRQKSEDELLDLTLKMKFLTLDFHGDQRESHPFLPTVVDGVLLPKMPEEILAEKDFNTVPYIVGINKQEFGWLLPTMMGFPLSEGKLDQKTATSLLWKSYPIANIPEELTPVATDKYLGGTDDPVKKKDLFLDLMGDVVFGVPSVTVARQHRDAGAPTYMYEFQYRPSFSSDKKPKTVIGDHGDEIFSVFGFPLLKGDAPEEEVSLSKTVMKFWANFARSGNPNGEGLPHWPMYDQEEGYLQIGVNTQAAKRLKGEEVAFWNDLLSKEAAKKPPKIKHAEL

target: Liver carboxylesterase (Sus scrofa, UniProt Q29550); assay: Inhibition of porcine liver carboxylesterase using 4-nitrophenol acetate as substrate by spectrophotometric analysis

Compared with NC1=NCC(CBr)S1 (centres undefined), BrCC1CN=C(Nc2ccccn2)S1 (centres undefined) is lower in IC50: greater than 100 µM for the first, 93 µM for the second.

First: ICC1CN=C(NCc2ccccc2)S1 (centres undefined)
Second: BrCC1CN=C(NCc2ccccc2)S1 (centres undefined)
The IC50 of the first is lower: 17 µM for the first, greater than 100 µM for the second.

ICC1CN=C(Nc2ccc3c(c2)OCCO3)S1 (centres undefined) and ICC1CN=C(Nc2ccccc2)S1 (centres undefined) cannot be ordered by IC50: greater than 100 µM for the first, greater than 100 µM for the second.

Compound BrCC1CN=C(Nc2ccccc2)S1 (centres undefined) has an IC50 greater than 100 µM.

In the case of Cc1cccc(NC2=NCC(CI)S2)n1.I (centres undefined), the IC50 is reported as “Not Active”.
For I.NC1=NCC(CI)S1 (centres undefined), the IC50 was “Not Active”.
